Reference: US9675579B2, “Tetrahydrocannabivarin for use in the treatment of nausea and vomiting” (GW Pharma Limited, priority 2013, dated 2017)

What was measured:
[1] = tested on: rats; conditions: McLaughlin et al., 2005; cited from earlier work
[2] = tested on: Sprague-Dawley rats; assay: Conditioned gaping to saccharin paired with the compound (Example 1); conditions: i.p., all doses tested (SR 10, 20; AM251 10; THCV 10, 20; CBDV 10, 200 mg/kg), drug-free test 72 h after conditioning, vs VEH and other groups

AM251
conditioned gaping produced by the compound [1]: produced conditioned gaping in rats
conditioned gaping reactions (nausea-like reactions) elicited by 0.1% saccharin previously paired with the compound [2]: produced significantly more conditioned gaping when paired with saccharin solution than any of the other compounds
